Assay outcomes deposited in PubChem BioAssay by National Center for Advancing Translational Sciences (NCATS).
G9a block: G9a (human) methyltransferase inhibition. G9a H3K9 monomethylation, AlphaScreen, 2 h. AID 504332. actives 8.8% (n = 350,000). Potency, µM (top dose mostly 102 µM), without a hit: at the highest dose activity, negative = inhibition, actives largely listed as inhibitors. Q96KQ7; also: potency is read from the fitted curve at half-maximal effect; % is scaled to controls: 0 for no effect and ±100 for the full control effect; nearly all actives have a fitted effect of over 75% in size
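Quantitative HTS format: methyltransferase activity on a biotin-tagged H3K9 peptide is measured by AlphaScreen, using a rabbit anti-monomethyl-H3K9 antibody with streptavidin donor and anti-IgG acceptor beads. Final levels are 20 nM enzyme, 500 nM peptide, 20 uM SAM; 2 h RT.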
Sfp PPTase inh: qHTS Assay for Inhibitors of Bacillus subtilis Sfp phosphopantetheinyl transferase (PPTase) | 4'-phosphopantetheinyl transferase ffp (Bacillus subtilis), Q9F4F7 | AID 1490, 2009 | actives 3.5% (n = 310,000) | Biochemical Sfp PPTase activity, qHTS | Potency, µM, for inactives: max response, negative = inhibition, most hits filed as inhibitors; active = well fitted inhibition curve with a large enough effect; inconclusive = small, poorly fitted or top-dose-only effect, or another doubt; inactive = no such curve, though single readings can be large or run the other way;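 also: the enzyme is Sfp with the accession as filed and its product quenches rhodamine fluorescence; potency is read from the fitted curve at half-maximal effect; 0% = enzyme reaction without inhibitor and -100% = no enzyme wells; top concentration of the series not given in the record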
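After 15 min at room temperature with compound, 15 nM Sfp received 5 uM rhodamine-CoA plus 12.5 uM BHQ-2-ybbR (50 mM Hepes pH 7.6, 10 mM MgCl2). Rate came from the fluorescence difference over 30 min, ex 525/em 598 nm.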
miR-21 reporter: miR-21 reporter, rising signal; HeLa miR-21 FLuc reporter, luciferase, 48 h; Potency, µM (highest dose often 38.3 µM), for the others: top-dose reporter change, positive = more light; 340,000 tested, under 10 active; AID 2288; active = well fitted rising curve with a large enough effect; inconclusive = small, poorly fitted or top-dose-only effect; inactive = no such curve, though single readings can be large or run the other way;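 further: % of control where 0% means no effect; miR-21 action dims this reporter so a rising signal means less miR-21 action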
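HeLa cells endogenously expressing miR-21, stably carrying CMV-driven firefly luciferase with a downstream miR-21 binding site, 2000 cells/well. Titrations up to approximately 40 uM, 48 hours; luciferase luminescence read.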
JMJD2E inh: JMJD2E (human) inhibition; Potency, µM (titrated, usually from 57.1 µM), for the others: at the top dose activity change, negative = inhibition, most hits filed as inhibitors; AID 2147; actives 1.6% (n = 230,000); JMJD2E catalytic domain, FDH-coupled NADH fluorescence (FDH is formaldehyde dehydrogenase);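 also: potency is read from the fitted curve at half-maximal effect; 0% = wells with enzyme and -100% = buffer wells without enzyme; nearly all actives have a fitted effect of over 50% in size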
Lamin A splicing: LMNA splicing modulation; HeLa LMNA splicing GFP/RFP minigene ratio, 48 h; Potency, µM (titrated, usually from 46.1 µM), inactives show at the top dose ratio change, negative = inhibition, actives largely listed as inhibitors; actives 0.01% (n = 200,000); active = well fitted inhibition curve with a large enough effect in the signal ratio, with a control signal flat, not every such curve was filed as active; inconclusive = small, poorly fitted or top-dose-only effect, or effect the other way, or a change in a side signal; the % refers to the signal ratio; also: potency is read from the fitted curve at half-maximal effect; % is scaled to controls: 0 for no effect and ±100 for the full control effect
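S3 HeLa stable clones carrying a lamin A-EGFP splicing minigene plus DsRed2 were seeded at 600 cells/well in Opti-MEM with 2% FBS, pin-dosed and incubated 48 h at 37°C. Acumen cytometry (488 nm) gave the GFP/RFP total-intensity ratio.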
ALDH1A1 block: inhibitors of human aldehyde dehydrogenase 1A1; P00352; Purified ALDH1A1, NADH fluorescence, propionaldehyde substrate; Potency, µM (highest dose often 75.3 µM), for the others: at the highest dose activity, negative = inhibition, usual class: inhibitors; actives 7.3% (n = 220,000); active = well fitted inhibition curve with a large enough effect, not every such curve was filed as active; inconclusive = small, poorly fitted or top-dose-only effect, or another doubt; inactive = no such curve, though single readings can be large or run the other way;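 also: potency is read from the fitted curve at half-maximal effect; plate controls were no enzyme wells and a reference inhibitor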
* = called active by the depositor; ? = inconclusive; · = no result; [ ] = another dose, or the depositor's remark. The list is not random: actives were taken first. Their share in the collection is about 13%. Unless noted, calls follow the shape of the dose curve; as a rule, active = well fitted curve in the direction sought with a large enough effect; inconclusive = small, poorly fitted or top-dose-only effect, or another doubt; inactive = no such curve, though single readings can be large; an effect the other way counts as inactive or inconclusive.

SMILES | G9a block | Sfp PPTase inh | miR-21 reporter | JMJD2E inh | Lamin A splicing | ALDH1A1 block
Cc1cc(C(=O)CSc2nc3ccccc3n2CCC#N)c(C)n1Cc1cccs1 | -39%[12.7 µM] | -4% | -41% | -5% | -8% | -15%
CCN(CC)C(=O)Cn1cc(C(=O)C(=O)Nc2ccc3c(c2)OCCO3)c2ccccc21 | · | 0% | -11% | · | · | ·
Cc1cc(C)n2ncc(C(=O)Nc3ccc(Cl)c(Cl)c3)c2n1 | 40µM* | -26% | -8% | -25% | 6%[46 µM] | ?
COc1cc(NC(=O)c2cnn3c(C)cc(C)nc23)c(OC)cc1Cl | ? | -9% | -14% | ? | -5% | ?
CC(C)n1cnnc1SCC(=O)NNC(=O)COc1ccc(Cl)cc1 | -14% | · | · | · | · | ·
O=C(Nc1ccccn1)Nc1ccccc1Cl | 16% | 10% | -42% | · | · | ·
COC(=O)[C@H]1C[C@H]2CC[C@H](O)C[C@H]2N1Cc1c(F)cccc1Cl | · | 14% | · | 1% | · | 1%
C=CCOc1c(Br)cc(/C=N/Nc2ccc(C(=O)O)cc2)cc1OCC | 3.2µM* | ? | -89% | ? | ? | -10%
CCOC(=O)COc1cc(Br)c(/C=N/Nc2ccccc2)cc1OC | 10µM* | 4% | 3% | -12% | 22% | ?
COc1cc(C=O)c(Br)cc1OCC(=O)NCCc1ccccc1 | -6% | 13% | -7% | -19% | -18%[46 µM] | -6%
COc1ccc(/C=N/Nc2ccc(C(=O)O)cc2)cc1Br | 35µM* | -1% | -41% | ? | · | ?
CC(C)Oc1ccc(CNC(=O)c2ccc(CS(=O)Cc3ccccc3Cl)o2)cc1 (stereo not drawn) | -36%[59 µM] | · | 2% | · | · | ·
COc1ccc(C(C#N)N2N=C(C)CC2c2ccccc2)cc1 (stereo not drawn) | 45µM* | 12% | -7% | · | · | ·
COc1ccc(C2=NN(C(C#N)c3ccc(OC)cc3)C(c3ccccc3)C2)cc1 (stereo not drawn) | 1% | -5% | -73% | ? | -7% | 22µM*
CC1=NN(C(C#N)c2ccccc2)C(c2ccccc2)C1 (stereo not drawn) | · | -29% | 0% | ? | · | ·
COc1ccc(C2=Nc3nc(-c4ccccc4)cn3C(c3ccc(OC)cc3)C2)cc1 (stereo not drawn) | 22µM* | -9% | -19% | ? | -11% | ?
COc1ccc(C2CC(c3ccccc3)=NN2C(=O)CCC(=O)O)cc1 (stereo not drawn) | · | 13% | -7% | · | · | ·
CCOC(=O)c1cccc(NC(=O)C2CCCN(S(=O)(=O)c3cc(Br)cc4c3N(C(=O)CC)CC4)C2)c1 (stereo not drawn) | -39%[59 µM] | · | 5% | · | · | ·
Cc1ccc(CNC(=O)CN2C(=O)CSc3ccc(S(=O)(=O)N4CCC(C)CC4)cc32)cc1 | 17%[59 µM] | 13% | 3% | · | · | ·
Cc1cc(C)c[n+](-c2[nH]c(=O)sc2/C=N/N=C(\[O-])c2cccnc2)c1 | ? | -15% | 1% | · | · | ·

Part of the list above in another layout.
SMILES,G9a block,Sfp PPTase inh,miR-21 reporter,JMJD2E inh,Lamin A splicing,ALDH1A1 block
COc1ccc(C2=NN(C(C#N)c3ccc(OC)cc3)C(c3ccccc3)C2)cc1 (stereo not drawn),1%,-5%,-73%,?,-7%,22µM*
CCN(CC)C(=O)Cn1cc(C(=O)C(=O)Nc2ccc3c(c2)OCCO3)c2ccccc21,·,0%,-11%,·,·,·
Cc1cc(C)n2ncc(C(=O)Nc3ccc(Cl)c(Cl)c3)c2n1,40µM*,-26%,-8%,-25%,6%[46 µM],?

The list goes on.
SMILES | G9a block | Sfp PPTase inh | miR-21 reporter | JMJD2E inh | Lamin A splicing | ALDH1A1 block
NC(=O)c1c(/N=C/c2cccs2)sc2c1CCCC2 | · | -11% | -18% | -1% | · | ·
Cc1ccc(-c2ccc(/C=N/c3ncn[nH]3)o2)cc1Cl | -27%[12.7 µM] | 56µM* | -13% | ? | -3% | ?
CCCn1c(CN2CCN(C(=O)c3ccco3)CC2)nc2cc(S(=O)(=O)N(C)C)ccc21 | 40µM* | · | · | · | · | ·
COc1ccc(C)cc1NC(=O)COCc1cc(-c2ccc(F)cc2)on1 | 30%[59 µM] | · | 0% | · | 3%[46 µM] | ·
Cc1cc(NC(=O)c2ccco2)c(=O)n(Cc2cccc(C(F)(F)F)c2)c1 | 5% | 5% | -1% | · | · | ·
Cc1nc2cc(N3CCN(C)CC3)c(NC(=O)Cc3ccccc3)cc2c(=O)n1Cc1ccccc1 | ? | 5% | -15% | ? | -2% | 18µM*
Cc1c(NC(=O)c2ccccc2F)cccc1-c1nc2cccnc2s1 | ? | · | 22% | · | · | ·
O=C(c1ccc(S(=O)(=O)Cc2cc(F)ccc2F)c([N+](=O)[O-])c1)N1CCCCC1 | -10% | -6% | 1% | -2% | ? | 8.9µM*
Cc1ccccc1CS(=O)(=O)c1ccc(C(=O)N2CCC(C)CC2)cc1[N+](=O)[O-] | -30% | 8% | 8% | 10% | · | -3%
Nc1ccc(C(=O)N2CCCC2)cc1CS(=O)(=O)c1ccc(Cl)cc1 | -3% | 18% | -2% | -4% | -2%[46 µM] | -3%
CC1CCN(C(=O)c2ccc(S(=O)(=O)Cc3cccc(F)c3)c([N+](=O)[O-])c2)CC1 | 23%[59 µM] | -2% | -3% | -1% | -4% | 25µM*
O=C(c1ccc(S(=O)(=O)Cc2cc(F)ccc2F)c([N+](=O)[O-])c1)N1CCCC1 | ? | -8% | 21% | -9% | · | 8.9µM*
Cc1ccc(N2C(=O)[C@@H]3CSC(c4ccc(Cl)cc4)N3C2=O)cc1 (stereo partly drawn) | 2%[59 µM] | · | -7% | · | · | ·
COCCN(C(=O)c1csnn1)C(C(=O)NC1CCCCC1)c1ccc(Cl)cc1 (stereo not drawn) | -12% | 2% | -3% | · | · | ·
Cc1ccc(S(=O)(=O)c2cn(Cc3ccccc3)c3cc(N4CCCC4)c(F)cc3c2=O)cc1 | 1%[59 µM] | · | 0% | · | -4%[46 µM] | ·
COC(=O)c1ccccc1NC(=O)Cn1c(SC)c(F)cnc1=O | 0.56µM* | -20% | -4% | -2% | -7% | ?
COC(=O)c1ccccc1NC(=O)Cn1cc(Br)cn1 | -12% | 3% | -7% | -4% | -1% | 0%
O=C(CN1CCN(c2ncc(C(F)(F)F)cc2Cl)CC1)N1CCN(c2ncc(C(F)(F)F)cc2Cl)CC1 | 50µM* | 13% | 2% | -3% | -9% | 4µM*
O=C(CSc1ccc(Cl)cc1)N1CCN(c2ncc(C(F)(F)F)cc2Cl)CC1 | 9%[59 µM] | 3% | -7% | -3% | ? | 8%
NNC(=O)C=C1CCN(c2ncc(C(F)(F)F)cc2Cl)CC1 | ? | -5% | -17% | ? | -17% | 16µM*

Three compounds from above, ordered by count of non-hydrogen atoms, high to low.
SMILES | G9a block | Sfp PPTase inh | miR-21 reporter | JMJD2E inh | Lamin A splicing | ALDH1A1 block
CC1CCN(C(=O)c2ccc(S(=O)(=O)Cc3cccc(F)c3)c([N+](=O)[O-])c2)CC1 | 23%[59 µM] | -2% | -3% | -1% | -4% | 25µM*
O=C(c1ccc(S(=O)(=O)Cc2cc(F)ccc2F)c([N+](=O)[O-])c1)N1CCCC1 | ? | -8% | 21% | -9% | · | 8.9µM*
COC(=O)c1ccccc1NC(=O)Cn1c(SC)c(F)cnc1=O | 0.56µM* | -20% | -4% | -2% | -7% | ?

(next part)
SMILES | G9a block | Sfp PPTase inh | miR-21 reporter | JMJD2E inh | Lamin A splicing | ALDH1A1 block
O=C(O)C=C1CCN(c2ncc(C(F)(F)F)cc2Cl)CC1 | -5%[59 µM] | 9% | -45% | 1% | -10% | 12%
CC(=O)c1ccc(N=c2scc(C)n2C(C)C)cc1 | 45µM* | 12% | -42% | -4% | 17%[46 µM] | 4%
Fc1cccc(F)c1/C=C/c1ccc2ccccc2n1 | ? | -8% | -23% | ? | ? | -9%
Fc1cccc(Cl)c1/C=C/c1cnc2ccccc2n1 | 50µM* | -14% | -55% | · | · | ·
[O][C@H]1[C@@H](O)[C@@H](CO)O[C@@H](O[C@@H]2[C@@H]3OC[C@H]2O[C@H](O[C@@H]2[C@@H](O)[C@H](C[C@@H]4[C@@H]5OC[C@H]4O[CH][C@@H]5O)O[C@H](CO)[C@@H]2OS(=O)(=O)O)[C@@H]3OS(=O)(=O)O)[C@@H]1O | 16µM* | 5% | · | · | · | 6%
